Source: article PMC11360128, “Rigid Macrocycle Metal Complexes as CXCR4 Chemokine Receptor Antagonists: Influence of Ring Size” (Pharmaceutics, 2024)

Protein sequences, listed by entry. Tags and fused reporters are not part of them.
UniProt P51681, whole entry: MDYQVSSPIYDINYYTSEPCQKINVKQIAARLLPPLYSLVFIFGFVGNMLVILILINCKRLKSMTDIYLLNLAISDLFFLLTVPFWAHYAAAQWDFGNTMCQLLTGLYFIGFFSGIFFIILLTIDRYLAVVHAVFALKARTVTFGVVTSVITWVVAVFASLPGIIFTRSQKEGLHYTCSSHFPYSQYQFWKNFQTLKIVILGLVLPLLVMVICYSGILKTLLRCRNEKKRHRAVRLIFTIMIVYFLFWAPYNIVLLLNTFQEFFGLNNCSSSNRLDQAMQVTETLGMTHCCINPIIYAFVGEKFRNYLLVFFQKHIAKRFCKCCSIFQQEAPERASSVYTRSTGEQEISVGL

Assays:
CCR5 [1] = molecular target: T1, CCR5 (Homo sapiens, UniProt P51681); experiment: CCL5^AF647 chemokine binding inhibition assay in PBMCs; conditions: AF647-labelled CCL5 in PBMCs; mean ± SEM; read-out: Competition Binding Assay IC50 CCL5
T1 construct: endogenous in cells
Description: Human PBMCs were washed once with assay buffer (Hanks’ balanced salt solution with 20 mM HEPES buffer and 0.2% bovine serum albumin, pH 7.4) and then incubated for 15 min at room temperature with the sample diluted in assay buffer at the indicated concentrations. Subsequently, CXCL12^AF647 (25 ng/mL) or CCL5^AF647 (50 ng/mL) was added to the compound-incubated cells. The cells were incubated for 30 min at room temperature. Thereafter, the cells were washed twice in assay buffer, fixed in 1% paraformaldehyde in PBS, and analysed on the FL4 channel of a FACSCalibur flow cytometer equipped with a 635 nm red diode laser (Becton Dickinson, San Jose, CA, USA). The percentage of inhibition of CXCL12^AF647 or CCL5^AF647 binding was calculated according to the formula: [1 − ((MFI − MFINC)/(MFIPC − MFINC))] × 100, where MFI is the mean fluorescence intensity of the cells incubated with CXCL12^AF647 or CCL5^AF647 in the presence of the inhibitor, MFINC is the mean fluorescence intensity measured in the negative control (i.e., autofluorescence of unlabelled cells), and MFIPC is the mean fluorescence intensity of the positive control (i.e., cells exposed to CXCL12^AF647 or CCL5^AF647 alone).
Binding affinity and selectivity towards CXCR4 were further evaluated through competition binding assays using natural chemokine ligands, tagged with Alexa Fluor 647, as previously reported. […]

PHA-stimulated PBMCs = experiment: Cellular cytotoxicity, microscopic evaluation and MTS assay; format: cell-based, human; conditions: 48 h, MTS, read-out: Toxicity CC50 PMBCs
Text: Buffy coat preparations from healthy donors were obtained from the Blood Bank in Leuven, Belgium. For the chemokine binding studies, peripheral blood mononuclear cells (PBMCs) activated with phytohemagglutinin (PHA; Sigma, Belgium) were used. Human T-lymphocytic SUP-T1 cells and TZM-bl cells were obtained from the American Type Culture Collection (Rockville, MD) and maintained in RPMI-1640 supplemented with 10% foetal bovine serum (FBS). Human glioblastoma U87.MG and U87.CD4 cells were kindly provided by Dr. D. Littman and used to generate cells expressing CXCR4 or CCR5 [48]. The fluorescent chemokines CXCL12^AF647 and CCL5^AF647 were purchased from Almac. […]
Cytotoxicity of the compounds was evaluated after 48 h of incubation at 37 °C in PHA-stimulated PBMCs (5 × 10^5 cells per well in culture medium). […] Cytotoxicity was evaluated microscopically, and in addition, the cell viability was assessed using the colorimetric CellTiter 96 AQueous One Solution Cell Proliferation Assay (Promega, Fitchburg, WI, USA), which is based on the reduction of the tetrazolium salt MTS [3-(4,5-dimethylthiazol-2-yl)-5-(3-carboxymethoxyphenyl)-2-(4-sulfophenyl)-2H-tetrazolium] to formazan by metabolically active cells. Absorbance at 490 nm was measured with the Versa-Max ELISA microplate reader (Molecular Devices, Sunnyvale, CA, USA). […]

CCR5 [2] = molecular target: T1, CCR5; experiment: CCL3L1-induced intracellular calcium mobilisation in CCR5-transfected U87 cells (FLIPR); format: cell-based; conditions: mean ± SEM, read-out: Ca^2+ Signalling Assay IC50 CCL3L1
Description: CXCR4- or CCR5-positive U87 glioblastoma/astrocytoma cells were loaded with the fluorescent calcium indicator Fluo-3 acetoxymethyl (Molecular Probes) at 4 µM in the assay buffer (Hanks’ balanced salt solution with 20 mM HEPES buffer and 0.2% bovine serum albumin, pH 7.4) for 45 min at room temperature. After thorough washing with the assay buffer, cells were pre-incubated for 10 min at 37 °C in the same buffer with the compounds of interest. The intracellular calcium mobilisation in response to CXCL12 (CXCR4 chemokine ligand) or CCL3L1 (CCR5 chemokine ligand) was then measured at 37 °C by monitoring the fluorescence as a function of time simultaneously in all the wells by using a fluorometric imaging plate reader (FLIPR; Molecular Devices, Sunnyvale, CA, USA).
The potency of the different metal complexes was investigated in a functional downstream receptor signalling assay. The inhibitory effect of the tested compounds was examined by Ca^2+ mobilisation studies with the natural ligands CXCL12 and CCL3L1 for the chemokine receptors CXCR4 and CCR5, respectively. The Ca^2+ ions released from the endoplasmic reticulum were measured over time in CXCR4- or CCR5-transfected U87 glioblastoma cells via their specific interaction with the fluorescent Ca^2+ indicator Fluo-3 [63].

**Q.** Maraviroc [reference compound] was tested. Which IC50 (CCR5 [1]) did it give?
**A.** 0.0103 ± 0.0035 µM

**Q.** And the CC50 (PHA-stimulated PBMCs)?
**A.** ≥ 100 µM

**Q.** What about the IC50 (CCR5 [2]) of the same substance?
**A.** 0.0031 ± 0.0006 µM
